Results reported in publication PMC5378566, “Design, synthesis and evaluation in an LPS rodent model of neuroinflammation of a novel ^18F-labelled PET tracer targeting P2X7” (EJNMMI Research, 2017).

How the values were obtained:
rat P2X7 [1] = target: T1, rat P2X7 (Rattus norvegicus, UniProt Q64663); conditions: Rat isoform, literature value from similar assay format; cited from earlier work
T1 sequence (Q64663 1-595): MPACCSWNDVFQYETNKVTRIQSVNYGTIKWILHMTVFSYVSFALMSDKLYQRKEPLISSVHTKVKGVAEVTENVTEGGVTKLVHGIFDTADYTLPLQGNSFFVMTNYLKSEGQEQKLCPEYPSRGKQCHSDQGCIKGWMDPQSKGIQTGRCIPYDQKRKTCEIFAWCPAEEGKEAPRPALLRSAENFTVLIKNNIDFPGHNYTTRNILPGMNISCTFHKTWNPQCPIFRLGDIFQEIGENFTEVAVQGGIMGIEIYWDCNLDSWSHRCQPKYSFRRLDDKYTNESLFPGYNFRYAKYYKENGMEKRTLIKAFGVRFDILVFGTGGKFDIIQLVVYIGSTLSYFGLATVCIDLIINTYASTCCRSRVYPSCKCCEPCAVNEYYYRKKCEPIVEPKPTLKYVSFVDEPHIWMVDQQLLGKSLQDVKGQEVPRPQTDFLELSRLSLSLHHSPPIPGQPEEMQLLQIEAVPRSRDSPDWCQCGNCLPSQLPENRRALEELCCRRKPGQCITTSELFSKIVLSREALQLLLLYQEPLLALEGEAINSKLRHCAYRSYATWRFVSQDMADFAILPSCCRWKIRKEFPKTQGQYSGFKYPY

rat P2X7 [2] = target: T1, rat P2X7; assay: Calcium influx (Fura-2/AM) inhibition assay, BzATP-activated; format: cell-based; set-up: expressed in transfected cells; conditions: Rat isoform

- Ki (rat P2X7 [2]; Cheng–Prusoff from pIC50 assuming competitive inhibition, BzATP 100 μM): 8.67 nM
- IC50 (rat P2X7 [2]; P2X7-HEK293, [BzATP] 100 μM): 1740 nM
Compound: COc1ccc(CC(=O)NC(NC(=NC#N)Nc2cccc3ncccc23)C(C)(C)C)cc1OC (stereo not drawn) [A-740003, N-(1-{[(Cyanoimino)(5-quinolinylamino)methyl]amino}-2,2-dimethylpropyl)-2-(3,4-dimethoxyphenyl)acetamide, reference compound]
- Lit. pIC50 (rat P2X7 [1]): 7.75 [32]
